The experiment addresses human TNF-α (human) (UniProt P01375). Briefly: cell-based or functional assay.

Protein sequences, listed by entry. Tags and fused reporters are not part of them. Residues count along the entry.
UniProt P01375, 77-233 limits assumed: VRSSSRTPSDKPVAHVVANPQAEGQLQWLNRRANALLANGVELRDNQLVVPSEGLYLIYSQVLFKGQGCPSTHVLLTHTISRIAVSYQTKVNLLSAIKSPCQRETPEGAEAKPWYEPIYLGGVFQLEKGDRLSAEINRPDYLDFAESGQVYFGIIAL

Regarding “Q002 (Certolizumab), the primary drug of Certolizumab (antibody)”, the IC50 (M), TNF-α-mediated killing of L929 cells (CCK-8) was determined as 1.3e-06 M.

The values above are taken from patent US20230242634A1.
